# What was measured:
# The chains behind the UniProt entries cited, without tags or fusion partners. Where a name states a change or a piece, a line headed by the entry shows the natural chain unless it says otherwise.
# UniProt P35372, whole entry: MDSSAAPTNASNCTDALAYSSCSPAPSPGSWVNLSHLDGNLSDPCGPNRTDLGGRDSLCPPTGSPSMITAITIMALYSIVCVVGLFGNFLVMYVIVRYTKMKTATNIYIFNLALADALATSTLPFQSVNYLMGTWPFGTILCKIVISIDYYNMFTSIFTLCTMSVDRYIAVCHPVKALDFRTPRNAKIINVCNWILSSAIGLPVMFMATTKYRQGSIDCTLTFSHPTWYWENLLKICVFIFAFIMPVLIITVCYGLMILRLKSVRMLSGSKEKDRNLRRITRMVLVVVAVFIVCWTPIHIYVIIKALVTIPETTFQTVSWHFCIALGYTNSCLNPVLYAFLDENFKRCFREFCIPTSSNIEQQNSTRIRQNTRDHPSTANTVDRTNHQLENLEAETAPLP
# UniProt P18825, whole entry: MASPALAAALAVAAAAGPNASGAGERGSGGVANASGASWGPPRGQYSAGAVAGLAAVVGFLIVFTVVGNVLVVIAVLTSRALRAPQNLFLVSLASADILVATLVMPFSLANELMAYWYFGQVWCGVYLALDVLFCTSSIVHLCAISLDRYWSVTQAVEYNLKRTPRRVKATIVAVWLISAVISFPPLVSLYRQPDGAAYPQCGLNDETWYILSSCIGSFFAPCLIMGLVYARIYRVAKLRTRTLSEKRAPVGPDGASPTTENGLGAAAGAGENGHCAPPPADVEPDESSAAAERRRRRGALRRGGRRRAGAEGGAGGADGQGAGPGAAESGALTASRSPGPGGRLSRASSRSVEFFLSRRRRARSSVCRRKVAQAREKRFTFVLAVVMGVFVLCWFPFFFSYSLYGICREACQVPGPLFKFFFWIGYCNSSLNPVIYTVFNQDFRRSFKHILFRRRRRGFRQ
# UniProt P41145: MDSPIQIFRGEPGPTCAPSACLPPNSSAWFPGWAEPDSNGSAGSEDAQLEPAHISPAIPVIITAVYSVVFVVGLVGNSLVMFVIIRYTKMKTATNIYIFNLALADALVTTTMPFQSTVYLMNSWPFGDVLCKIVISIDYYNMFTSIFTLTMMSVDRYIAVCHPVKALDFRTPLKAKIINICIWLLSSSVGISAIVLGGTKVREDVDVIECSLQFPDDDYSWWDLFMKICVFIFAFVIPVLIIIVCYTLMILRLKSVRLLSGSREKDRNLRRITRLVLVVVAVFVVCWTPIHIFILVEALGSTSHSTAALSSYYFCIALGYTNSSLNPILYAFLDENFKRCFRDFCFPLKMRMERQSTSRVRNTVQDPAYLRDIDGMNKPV
# UniProt P08908, whole entry: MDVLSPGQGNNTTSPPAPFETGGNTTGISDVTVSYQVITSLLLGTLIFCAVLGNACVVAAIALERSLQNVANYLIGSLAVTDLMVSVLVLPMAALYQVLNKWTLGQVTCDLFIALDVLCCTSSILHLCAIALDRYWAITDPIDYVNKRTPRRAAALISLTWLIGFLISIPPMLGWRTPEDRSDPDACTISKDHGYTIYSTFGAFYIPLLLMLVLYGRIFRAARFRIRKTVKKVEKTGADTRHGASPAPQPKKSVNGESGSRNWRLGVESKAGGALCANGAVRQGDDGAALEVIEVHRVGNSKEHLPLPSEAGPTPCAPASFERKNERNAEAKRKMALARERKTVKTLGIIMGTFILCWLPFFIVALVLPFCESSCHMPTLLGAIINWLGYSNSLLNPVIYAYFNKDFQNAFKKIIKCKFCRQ
# UniProt P25021, whole entry: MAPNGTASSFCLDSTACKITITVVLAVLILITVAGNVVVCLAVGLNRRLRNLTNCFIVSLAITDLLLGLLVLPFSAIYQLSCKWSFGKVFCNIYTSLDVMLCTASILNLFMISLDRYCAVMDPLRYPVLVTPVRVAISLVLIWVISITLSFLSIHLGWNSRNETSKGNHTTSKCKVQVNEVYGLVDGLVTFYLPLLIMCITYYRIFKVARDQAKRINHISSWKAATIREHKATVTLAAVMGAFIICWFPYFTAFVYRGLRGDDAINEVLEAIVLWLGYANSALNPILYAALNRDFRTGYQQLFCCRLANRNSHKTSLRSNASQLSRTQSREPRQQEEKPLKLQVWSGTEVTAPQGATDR
# UniProt P31645, whole entry: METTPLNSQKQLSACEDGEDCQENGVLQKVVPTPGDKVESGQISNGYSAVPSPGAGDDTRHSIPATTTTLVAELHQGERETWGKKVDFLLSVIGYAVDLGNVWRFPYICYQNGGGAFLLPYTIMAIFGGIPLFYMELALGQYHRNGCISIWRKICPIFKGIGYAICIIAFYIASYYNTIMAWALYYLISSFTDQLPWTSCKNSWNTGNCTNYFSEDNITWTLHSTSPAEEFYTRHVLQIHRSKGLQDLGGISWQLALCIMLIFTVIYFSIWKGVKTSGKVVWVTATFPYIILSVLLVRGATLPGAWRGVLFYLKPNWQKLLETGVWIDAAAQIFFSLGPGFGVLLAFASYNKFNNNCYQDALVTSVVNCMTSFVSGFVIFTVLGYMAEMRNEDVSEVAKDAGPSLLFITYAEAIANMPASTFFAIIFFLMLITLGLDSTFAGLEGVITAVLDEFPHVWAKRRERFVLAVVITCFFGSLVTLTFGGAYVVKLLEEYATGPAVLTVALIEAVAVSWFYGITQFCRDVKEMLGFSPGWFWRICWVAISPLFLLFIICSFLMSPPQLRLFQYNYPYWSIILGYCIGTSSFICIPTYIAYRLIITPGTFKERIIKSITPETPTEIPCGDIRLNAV
# UniProt P08913, whole entry: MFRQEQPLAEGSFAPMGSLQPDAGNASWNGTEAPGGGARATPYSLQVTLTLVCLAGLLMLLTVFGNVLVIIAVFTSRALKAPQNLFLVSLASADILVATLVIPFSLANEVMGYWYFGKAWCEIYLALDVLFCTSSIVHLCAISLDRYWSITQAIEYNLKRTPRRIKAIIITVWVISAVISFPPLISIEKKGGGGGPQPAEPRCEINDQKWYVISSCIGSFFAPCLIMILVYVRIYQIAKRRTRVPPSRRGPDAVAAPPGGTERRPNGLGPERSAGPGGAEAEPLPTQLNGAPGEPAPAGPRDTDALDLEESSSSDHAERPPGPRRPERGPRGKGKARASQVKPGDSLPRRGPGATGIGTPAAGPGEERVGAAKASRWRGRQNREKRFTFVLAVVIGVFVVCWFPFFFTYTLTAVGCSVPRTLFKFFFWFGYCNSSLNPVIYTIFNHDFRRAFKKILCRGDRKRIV
# UniProt Q01959, whole entry: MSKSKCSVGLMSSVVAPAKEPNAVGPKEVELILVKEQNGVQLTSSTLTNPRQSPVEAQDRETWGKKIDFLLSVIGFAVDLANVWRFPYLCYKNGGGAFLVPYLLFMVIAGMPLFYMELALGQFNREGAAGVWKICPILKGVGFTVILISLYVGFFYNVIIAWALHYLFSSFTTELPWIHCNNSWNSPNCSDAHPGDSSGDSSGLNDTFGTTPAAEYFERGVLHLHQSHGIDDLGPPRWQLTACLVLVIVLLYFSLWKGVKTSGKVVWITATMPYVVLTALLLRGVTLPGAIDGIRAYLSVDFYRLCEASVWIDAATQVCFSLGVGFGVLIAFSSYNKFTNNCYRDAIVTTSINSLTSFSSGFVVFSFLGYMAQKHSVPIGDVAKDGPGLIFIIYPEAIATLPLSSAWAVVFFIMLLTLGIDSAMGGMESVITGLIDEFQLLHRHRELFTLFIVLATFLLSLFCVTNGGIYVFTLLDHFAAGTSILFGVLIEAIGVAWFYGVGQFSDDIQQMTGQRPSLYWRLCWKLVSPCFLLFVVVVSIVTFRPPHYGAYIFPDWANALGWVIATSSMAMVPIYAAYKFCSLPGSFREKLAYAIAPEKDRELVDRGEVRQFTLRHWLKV
# UniProt P18089, whole entry: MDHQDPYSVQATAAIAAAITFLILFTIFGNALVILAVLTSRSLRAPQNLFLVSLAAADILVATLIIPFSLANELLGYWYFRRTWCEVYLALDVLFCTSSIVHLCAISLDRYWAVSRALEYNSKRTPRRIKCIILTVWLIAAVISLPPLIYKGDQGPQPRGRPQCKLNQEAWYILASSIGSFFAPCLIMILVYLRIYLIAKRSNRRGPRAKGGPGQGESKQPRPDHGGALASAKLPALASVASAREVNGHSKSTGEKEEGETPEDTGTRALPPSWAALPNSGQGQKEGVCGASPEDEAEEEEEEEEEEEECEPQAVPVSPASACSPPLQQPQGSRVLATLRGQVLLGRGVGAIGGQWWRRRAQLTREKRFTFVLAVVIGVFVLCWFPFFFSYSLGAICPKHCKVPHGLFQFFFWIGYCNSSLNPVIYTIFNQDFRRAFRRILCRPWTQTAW
# UniProt P35368, whole entry: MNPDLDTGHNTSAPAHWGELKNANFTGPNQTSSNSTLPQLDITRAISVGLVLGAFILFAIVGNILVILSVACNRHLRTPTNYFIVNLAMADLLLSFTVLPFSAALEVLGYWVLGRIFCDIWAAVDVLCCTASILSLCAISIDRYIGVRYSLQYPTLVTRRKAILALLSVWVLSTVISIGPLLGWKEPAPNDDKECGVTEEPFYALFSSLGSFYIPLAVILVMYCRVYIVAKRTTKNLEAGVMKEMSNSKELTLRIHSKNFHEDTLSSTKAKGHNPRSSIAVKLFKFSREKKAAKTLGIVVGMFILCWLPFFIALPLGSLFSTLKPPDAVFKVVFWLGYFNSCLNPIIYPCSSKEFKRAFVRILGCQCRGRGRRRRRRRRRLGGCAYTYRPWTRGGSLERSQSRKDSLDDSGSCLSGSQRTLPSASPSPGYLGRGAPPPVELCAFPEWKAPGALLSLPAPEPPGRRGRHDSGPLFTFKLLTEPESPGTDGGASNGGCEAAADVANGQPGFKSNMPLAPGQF
# [1] = target: human mu opioid receptor (hMOR) (Homo sapiens, UniProt P35372); assay type: cell-based; conditions: read-out: EC50 Gi-1 activation hMOR
# MOR = conditions: read-out: binding affinity at MOR; cited from earlier work
# hα2C = hα2C (Homo sapiens, UniProt P18825); test: NIMH-PDSP radioligand binding; conditions: read-out: affinity Ki hα2C
# hα1A = target: T1, hα1A (Homo sapiens, UniProt P35348); test: NIMH-PDSP radioligand binding; conditions: read-out: affinity Ki hα1A
# T1 sequence (P35348 1-466): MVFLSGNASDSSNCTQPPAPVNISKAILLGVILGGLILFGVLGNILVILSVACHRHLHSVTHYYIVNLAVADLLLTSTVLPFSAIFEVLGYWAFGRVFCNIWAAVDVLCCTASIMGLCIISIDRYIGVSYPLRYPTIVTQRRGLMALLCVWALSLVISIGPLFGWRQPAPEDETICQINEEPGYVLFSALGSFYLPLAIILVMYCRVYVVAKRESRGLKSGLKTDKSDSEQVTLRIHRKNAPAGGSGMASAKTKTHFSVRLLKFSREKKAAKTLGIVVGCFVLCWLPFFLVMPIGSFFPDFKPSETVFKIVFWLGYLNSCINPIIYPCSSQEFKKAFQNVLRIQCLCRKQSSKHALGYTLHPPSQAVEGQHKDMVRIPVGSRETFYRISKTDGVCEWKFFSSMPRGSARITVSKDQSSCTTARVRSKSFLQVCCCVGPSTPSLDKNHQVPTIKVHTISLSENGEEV
# hKOR = hKOR (Homo sapiens, UniProt P41145); test: NIMH-PDSP radioligand binding; conditions: read-out: affinity Ki hKOR
# h5HT1A = h5HT1A (Homo sapiens, UniProt P08908); test: NIMH-PDSP radioligand binding; conditions: read-out: affinity Ki h5HT1A
# hH2 = hH2 (Homo sapiens, UniProt P25021); test: NIMH-PDSP radioligand binding; conditions: read-out: affinity Ki hH2
# hSERT = hSERT (Homo sapiens, UniProt P31645); test: NIMH-PDSP radioligand binding; conditions: read-out: affinity Ki hSERT
# hα2A = hα2A (Homo sapiens, UniProt P08913); test: NIMH-PDSP radioligand binding; conditions: read-out: affinity Ki hα2A
# hDAT = hDAT (Homo sapiens, UniProt Q01959); test: NIMH-PDSP radioligand binding; conditions: read-out: affinity Ki hDAT
# hα2B = hα2B (Homo sapiens, UniProt P18089); test: NIMH-PDSP radioligand binding; conditions: read-out: affinity Ki hα2B
# hα1B = hα1B (Homo sapiens, UniProt P35368); test: NIMH-PDSP radioligand binding; conditions: read-out: affinity Ki hα1B
substance,measurement,setting,value
corynantheidine,EC50,[1],0.0672 µM
same,Ki,MOR,0.118 µM
same,Ki,hα2C,0.269 µM
same,Ki,hα1A,0.397 µM
same,Ki,hKOR,2.11 µM
same,Ki,h5HT1A,1.16 µM
same,Ki,hH2,5.13 µM
same,Ki,hSERT,2.61 µM
same,Ki,hα2A,0.074 µM
same,Ki,hDAT,3.92 µM
same,Ki,hα2B,1.54 µM
same,Ki,hα1B,3.3 µM

# Source: paper PMC8328003 (ACS chemical neuroscience, 2021)
